Reference: patent publication US20200239500A1, “Compositions and Methods for Synthesis of Phosphorylated Molecules” (THE REGENTS OF THE UNIVERSITY OF CALIFORNIA, priority 2018, published 2020)

In the case of “1-(2-(pyrenesulfonyl)ethyl)pyrophosphate [pyrene pyrophosphate]”, the “stability to atmospheric conditions” value (solid at room temperature) was “stable to atmospheric conditions” and the “storage stability (loss of activity)” value (stored for long periods of time) was “without loss of activity”.
